In paper PMC3979046, “A phase 1 study evaluating the combination of an allosteric AKT inhibitor (MK-2206) and trastuzumab in patients with HER2-positive solid tumors” (Breast Cancer Research : BCR, 2013):

Assay: Plasma pharmacokinetics of MK-2206 given with trastuzumab
Settings: co-administration, compared with prior monotherapy study

**Q.** Which “effect on the pharmacokinetics of MK-2206” value does the source give for “trastuzumab: HER2-targeted agent given as standard intravenous infusion [reference compound]” here?
**A.** The value was “did not appreciably alter the pharmacokinetics of MK-2206”.
